Measured values from US6340696B1, “Viral treatment” (The Procter & Gamble Company, priority 1999, dated 2002).

Columns and labels:
[1] = test system: Madin-Darby bovine kidney (MDBK) cells; assay: Cytotoxicity in MDBK cells (drug toxicity control wells, XTT)
Description: (§1) Madin-Darby bovine kidney (MDBK) cells were passaged in T-75 flasks for use in the assay. On the day preceding the assay, the cells were trypsinized, pelleted, counted and resuspended at 6×10^4/well in tissue culture medium. Cells were added to 96 well flat bottom plates in a volume of 100 μl per well.
Interferon was purchased from PBL Biomedical Laboratories (New Brunswick, N.J.) and was in PBS solutions. On the day of testing, the drug stock is diluted in the medium to the desired high concentration and then further diluted in the medium in half log series.
The day following plating of cells, plates are removed from the incubator, and medium is removed and discarded. Drug dilutions are added to appropriate wells of the microtiter plate in a volume of 100 μl per well. Each dilution is set up in triplicate. Complete medium or complete medium containing appropriately diluted virus is added to appropriate wells in a volume of 100 μl per well.
The format of the test plate has been standardized. Each plate contains cell control wells (cell only), virus control wells (cells plus virus), drug toxicity control wells (cells plus drug only), drug colorimetric control wells (drug only) as well as experimental wells (drugs plus cells plus virus).
(§2) The cell viability was evaluated by a dye (XTT) uptake procedure. XTT-tetraolium is metabolized by the mitochontrial enzymes of metabolically active cells to a soluble formazan product, allowing the rapid quantitative analysis of the inhibition of virus-induced cell killing by antiviral test substances.
XTT solution was prepared daily as a stock of 1 mg/ml in PBS. Phenazine methosulfate (PMS) solution was prepared at 15 mg/ml in PVBS and stored in the dark at −20° C. STT/PMS stock was prepared immediately before use by diluting PMS 1:100 into PBS and adding 40 μl per ml of XTT solution. Fifty microliters of XTT/PMS was added to each well of the plate (each well had been loaded with 100 μl fresh medium) and the plate was reincubated for 4 hours at 37° C.
Adhesive plate sealers were used in place of the lids, the sealed plate was inverted several times to mix the soluble formazan product and the plate was read spectrophotometrically at 450 nm (XTT) with a Molecular Devices Vmax plate reader.
The efficacy and toxicity of inteferons are analyzed using a computer program (developed by Southern Research Institute) which calculates % CPE reduction, % cell viability, IC25,50 & 95, TC5,50 & 95 and other indices.
Combination effects are analyzed statistically by Prichard and Shipman method. Effects of the drug combination on efficacy and toxicity are calculated based on the activity or toxicity of the two compounds when tested alone. The expected additive inhibition rate of virus production or the expected additive cell viability rate subtracted from the experimentally determined inhibition rate or viability rate at each combination concentration results in a positive value (synergy), a negative value (antagonism), or zero (addivity).

[2] = test system: BVDV; assay: BVDV antiviral assay in MDBK cells, XTT readout of inhibition of virus-induced cell killing; format: cell-based; settings: TC50/IC50
Description: as §1
A pretitered aliquot of virus is removed from the freezer (−80° C.) and allowed to thaw slowly to room temperature in a biological safety cabinet. The virus is diluted into tissue culture medium such that the amount of virus added to each well in a volume of 100 μl will be the amount determined to give complete cell killing at 6 days post-infection.
Interferon was purchased from PBL Biomedical Laboratories (New Brunswick, N.J.) and was in PBS solutions. […]
as §2, with “substances. […]” for “substances.”
Adhesive plate sealers were used in place of the lids, the sealed plate was inverted several times to mix the soluble formazan product and the plate was read spectrophotometrically at 450 nm (XTT) with a Molecular Devices Vmax plate reader. […]
Combination effects are analyzed statistically by Prichard and Shipman method. […]

## NC(=O)c1ncn([C@@H]2O[C@H](CO)[C@@H](O)[C@H]2O)n1 [Ribavirin, 1-β-D-ribofuranosyl-1H-1,2,4-triazole-3carboxamide, reference compound]
[1]; Compound conc 0, Ribavirin conc 0.075
  Cytotoxicity Percentage: −15.1%
[1]; Compound conc 0, Ribavirin conc 0.238
  Cytotoxicity Percentage: −8.6%
[1]; Compound conc 0, Ribavirin conc 0.751
  Cytotoxicity Percentage: −12.3%
[1]; Compound conc 0, Ribavirin conc 2.373
  Cytotoxicity Percentage: 27.2%
[1]; Compound conc 0, Ribavirin conc 7.5
  Cytotoxicity Percentage: 46.7%
[1]; Ribavirin conc 0.075, INF-αA conc 0
  Cytotoxicity Percentage: 0%
[1]; Ribavirin conc 0.238, INF-αA conc 0
  Cytotoxicity Percentage: 0.6%
[1]; Ribavirin conc 0.751, INF-αA conc 0
  Cytotoxicity Percentage: 0%
[1]; Ribavirin conc 2.373, INF-αA conc 0
  Cytotoxicity Percentage: 10.8%
[1]; Ribavirin conc 7.500, INF-αA conc 0
  Cytotoxicity Percentage: 54.2%
[2]
  TI: 10.82
